Assay results published in patent US20080113344A1, “Methods and Compositions for the Response Prediction of Malignant Neoplasia to Treatment” (priority 2003, published 2008).

Key:
[1] = test system: tumor cells; experiment: Treating tumor cells with agents blocking EGFR/Her-2/neu signaling, keratin expression; type: cell-based; details: keratins being part of the ARCHEONs
[2] = test system: EGFR signalling; details: clinical studies; cited from earlier work
[3] = anthracyclin pretreated patients, subsequent Herceptin based regimen; cited from earlier work

Row | Compound | expression of specific keratins in treated tumor cells [1] | skin diseases under treatment [2] | heart toxicity events [3]
1 | COc1cc2ncnc(Nc3ccc(F)c(Cl)c3)c2cc1OCCCN1CCOCC1 [Iressa] | shifts the expression of specific keratins | skin diseases (e.g. acne-like rash) of grade I, II or III | –
2 | Herceptin: Gene specific antibodies raised against HER-2/neu | shifts the expression of specific keratins | – | significantly increased heart toxicity events
3 | Cetuximab: antibody-treatment blocking EGFR signalling | shifts the expression of specific keratins | skin diseases (e.g. acne-like rash) of grade I, II or III | –
